The target of this assay is human FcRn (Cat. No. CT009-H08H, Lot No. LC120C3101, Sino biological) (human) (UniProt P55899). As to the kind of experiment: BLI (Fortebio Octet Red96), 100 nM FcRn loaded on HIS1K sensors, antibody 0-100 nM in solution.

Turning to IgG1 (adalimumab) (antibody), the Kd stood at 9.88 nM, the koff amounted to 0.0077 s⁻¹ and the kon is 780000 M⁻¹ s⁻¹.

These data come from US20240034795A1.
